# PubChem BioAssay AID1224864 (Chung Lab, Department of Pediatrics, Emory University, 2016)
# Chains of the proteins cited; added tags and fusions are not shown.
# UniProt P13569, whole entry, looked up, stated change not applied: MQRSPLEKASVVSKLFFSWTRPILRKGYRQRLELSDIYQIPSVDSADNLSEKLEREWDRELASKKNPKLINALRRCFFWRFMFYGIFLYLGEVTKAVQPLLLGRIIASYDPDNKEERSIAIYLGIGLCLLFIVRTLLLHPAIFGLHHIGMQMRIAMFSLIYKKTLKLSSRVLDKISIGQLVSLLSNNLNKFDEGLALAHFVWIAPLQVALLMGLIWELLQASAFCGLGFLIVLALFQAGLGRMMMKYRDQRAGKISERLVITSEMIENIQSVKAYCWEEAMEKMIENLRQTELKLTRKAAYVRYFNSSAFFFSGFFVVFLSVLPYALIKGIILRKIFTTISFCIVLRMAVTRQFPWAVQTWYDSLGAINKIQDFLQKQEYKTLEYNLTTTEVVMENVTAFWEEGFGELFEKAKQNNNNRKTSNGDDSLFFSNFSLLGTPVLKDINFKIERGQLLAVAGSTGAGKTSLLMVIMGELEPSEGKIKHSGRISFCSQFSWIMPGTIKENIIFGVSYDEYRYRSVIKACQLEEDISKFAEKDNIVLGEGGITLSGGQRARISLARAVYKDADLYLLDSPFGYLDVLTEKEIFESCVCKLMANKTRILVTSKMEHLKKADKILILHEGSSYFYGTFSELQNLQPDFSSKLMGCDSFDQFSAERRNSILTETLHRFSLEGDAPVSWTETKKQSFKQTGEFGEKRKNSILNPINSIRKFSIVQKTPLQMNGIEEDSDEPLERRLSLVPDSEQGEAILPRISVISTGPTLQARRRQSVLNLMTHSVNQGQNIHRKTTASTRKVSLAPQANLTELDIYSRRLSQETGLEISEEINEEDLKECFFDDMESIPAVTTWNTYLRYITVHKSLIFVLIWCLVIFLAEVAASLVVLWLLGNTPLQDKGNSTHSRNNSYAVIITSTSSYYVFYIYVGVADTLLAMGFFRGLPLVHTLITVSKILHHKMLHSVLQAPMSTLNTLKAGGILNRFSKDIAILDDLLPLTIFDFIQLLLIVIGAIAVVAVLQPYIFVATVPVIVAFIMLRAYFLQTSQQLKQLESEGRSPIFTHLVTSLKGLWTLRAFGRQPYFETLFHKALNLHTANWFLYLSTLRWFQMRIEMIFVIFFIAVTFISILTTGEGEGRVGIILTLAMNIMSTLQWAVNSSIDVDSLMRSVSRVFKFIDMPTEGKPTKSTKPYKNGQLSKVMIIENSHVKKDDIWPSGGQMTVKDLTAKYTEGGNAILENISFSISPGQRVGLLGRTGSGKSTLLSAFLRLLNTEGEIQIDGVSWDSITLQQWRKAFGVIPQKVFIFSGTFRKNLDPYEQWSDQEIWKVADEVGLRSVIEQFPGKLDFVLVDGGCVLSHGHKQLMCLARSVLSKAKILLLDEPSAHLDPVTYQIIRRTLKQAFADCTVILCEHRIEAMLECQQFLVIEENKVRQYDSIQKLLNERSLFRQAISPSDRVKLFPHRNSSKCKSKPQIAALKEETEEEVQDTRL
# The entries are a selection whose mix differs from that of the whole data set. Activity calls are given as the source filed them. No rule for the calls is given here.
# Target: Cystic fibrosis transmembrane conductance regulator (Homo sapiens) (UniProt P13569)
# Experiment: correctors of F508del-CFTR surface localization, primary screen, imaging, HeLa, high-content microscopy, immunofluorescence (AID 1224864);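 also: HeLa cells stably expressing F508del-CFTR stained with 3G11 antibody against NBD1; mean immunofluorescence in a thin cell-margin band taken as plasma membrane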
# Details: PM immunofluorescence imaging, 24 h, at 10 µM, stronger effect = higher value, relative to vehicle wells set at 100
row,SMILES,plasma membrane CFTR intensity
1,CN(C(=O)Cc1ccc(Cl)c(Cl)c1)[C@@H]1CCCC[C@H]1N1CCCC1,inactive: 82%
